Molecules are shown by their SMILES.

The assay deals with HT1080 cells. Description: HT1080 cellular assay, 2-HG by LC-MS (IDH1 R132C). It counts as cell-based. The following applies: Homo sapiens, HT-1080. Here is the method: The following describes the experimental procedures that can be used to obtain data on column 5 of Table 4.
Cells (HT1080 or U87MG) are grown in T125 flasks in DMEM containing 10% FBS, 1× penicillin/streptomycin and 500 ug/mL G418 (present in U87MG cells only). They are harvested by trypsin and seeded into 96 well white bottom plates at a density of 5000 cell/well in 100 ul/well in DMEM with 10% FBS. No cells are placed in columns 1 and 12. Cells are incubated overnight at 37° C. in 5% CO2. The next day test compounds are made up at 2× the final concentration and 100 ul are added to each cell well. The final concentration of DMSO is 0.2% and the DMSO control wells are plated in row G. The plates are then placed in the incubator for 48 hours. At 48 hours, 100 ul of media is removed from each well and analyzed by LC-MS for 2-HG concentrations. The cell plate is placed back in the incubator for another 24 hours. At 72 hours post compound addition, 10 mL/plate of Promega Cell Titer Glo reagent is thawed and mixed. The cell plate is removed from the incubator and allowed to equilibrate to room temperature. Then 100 ul of Promega Cell Titer Glo reagent is added to each well of media. The cell plate is then placed on an orbital shaker for 10 minutes and then allowed to sit at room temperature for 20 minutes. The plate is then read for luminescence with an integration time of 500 ms. […]

For `CC(Nc1cc(NC(C)C2CC2)nc(-c2cccc(C(F)(F)F)n2)n1)C1CC1` (stereo not shown) [Compound 420], the IC50 fell in the range of 100 to 1000 nM.

Usually IC50 stands for the concentration needed to halve the response being measured. High values mean weaker potency in that assay, low ones greater potency in that assay.

(Values after patent US10946023B2, “Therapeutically active compounds and their methods of use” (Agios Pharmaceuticals, Inc., priority 2013, dated 2021).)
